Protein sequences, listed by entry. Tags and fused reporters are not part of them. Residues count along the entry.
UniProt P22607, 23-806, stated change not applied: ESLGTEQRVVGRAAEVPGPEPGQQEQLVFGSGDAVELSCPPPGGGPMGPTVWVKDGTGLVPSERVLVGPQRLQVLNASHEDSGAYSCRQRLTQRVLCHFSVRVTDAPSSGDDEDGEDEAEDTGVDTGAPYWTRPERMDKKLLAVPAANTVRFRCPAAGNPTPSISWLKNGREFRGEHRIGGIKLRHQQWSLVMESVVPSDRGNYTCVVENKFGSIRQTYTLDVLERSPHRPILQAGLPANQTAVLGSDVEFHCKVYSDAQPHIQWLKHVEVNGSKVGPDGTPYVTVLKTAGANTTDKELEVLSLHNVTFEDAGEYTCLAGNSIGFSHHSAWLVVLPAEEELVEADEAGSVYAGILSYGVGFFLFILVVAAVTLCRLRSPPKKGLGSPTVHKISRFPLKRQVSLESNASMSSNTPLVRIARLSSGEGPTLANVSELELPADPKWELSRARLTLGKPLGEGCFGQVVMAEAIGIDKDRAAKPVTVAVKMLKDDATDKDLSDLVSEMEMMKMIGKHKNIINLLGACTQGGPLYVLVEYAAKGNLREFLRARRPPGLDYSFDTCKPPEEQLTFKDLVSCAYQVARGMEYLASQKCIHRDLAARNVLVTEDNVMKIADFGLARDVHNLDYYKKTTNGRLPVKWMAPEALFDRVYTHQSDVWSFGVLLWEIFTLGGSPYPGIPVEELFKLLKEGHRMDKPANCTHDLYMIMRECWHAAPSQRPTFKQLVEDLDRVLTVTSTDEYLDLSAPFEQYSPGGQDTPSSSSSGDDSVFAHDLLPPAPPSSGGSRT
UniProt P22607, 23-806 K650M: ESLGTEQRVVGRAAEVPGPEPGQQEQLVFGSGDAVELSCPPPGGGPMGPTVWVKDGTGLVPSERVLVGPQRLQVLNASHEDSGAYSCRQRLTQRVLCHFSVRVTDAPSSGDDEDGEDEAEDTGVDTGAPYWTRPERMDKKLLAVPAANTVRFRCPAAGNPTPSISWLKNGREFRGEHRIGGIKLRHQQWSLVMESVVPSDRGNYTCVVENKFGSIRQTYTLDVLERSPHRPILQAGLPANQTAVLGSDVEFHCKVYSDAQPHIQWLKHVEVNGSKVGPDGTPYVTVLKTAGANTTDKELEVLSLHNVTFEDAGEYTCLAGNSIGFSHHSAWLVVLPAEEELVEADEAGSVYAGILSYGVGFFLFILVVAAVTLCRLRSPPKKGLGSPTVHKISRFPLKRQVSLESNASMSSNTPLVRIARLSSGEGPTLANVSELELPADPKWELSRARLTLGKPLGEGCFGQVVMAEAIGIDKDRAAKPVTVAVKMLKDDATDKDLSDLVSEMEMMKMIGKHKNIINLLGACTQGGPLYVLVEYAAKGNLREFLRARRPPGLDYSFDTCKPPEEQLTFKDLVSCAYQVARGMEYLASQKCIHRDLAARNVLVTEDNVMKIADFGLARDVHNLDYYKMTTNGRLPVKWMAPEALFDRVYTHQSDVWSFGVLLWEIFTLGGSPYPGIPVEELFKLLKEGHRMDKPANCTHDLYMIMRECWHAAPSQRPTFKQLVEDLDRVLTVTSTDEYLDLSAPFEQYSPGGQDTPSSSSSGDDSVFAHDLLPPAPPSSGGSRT
UniProt P22607, 23-806 K650E: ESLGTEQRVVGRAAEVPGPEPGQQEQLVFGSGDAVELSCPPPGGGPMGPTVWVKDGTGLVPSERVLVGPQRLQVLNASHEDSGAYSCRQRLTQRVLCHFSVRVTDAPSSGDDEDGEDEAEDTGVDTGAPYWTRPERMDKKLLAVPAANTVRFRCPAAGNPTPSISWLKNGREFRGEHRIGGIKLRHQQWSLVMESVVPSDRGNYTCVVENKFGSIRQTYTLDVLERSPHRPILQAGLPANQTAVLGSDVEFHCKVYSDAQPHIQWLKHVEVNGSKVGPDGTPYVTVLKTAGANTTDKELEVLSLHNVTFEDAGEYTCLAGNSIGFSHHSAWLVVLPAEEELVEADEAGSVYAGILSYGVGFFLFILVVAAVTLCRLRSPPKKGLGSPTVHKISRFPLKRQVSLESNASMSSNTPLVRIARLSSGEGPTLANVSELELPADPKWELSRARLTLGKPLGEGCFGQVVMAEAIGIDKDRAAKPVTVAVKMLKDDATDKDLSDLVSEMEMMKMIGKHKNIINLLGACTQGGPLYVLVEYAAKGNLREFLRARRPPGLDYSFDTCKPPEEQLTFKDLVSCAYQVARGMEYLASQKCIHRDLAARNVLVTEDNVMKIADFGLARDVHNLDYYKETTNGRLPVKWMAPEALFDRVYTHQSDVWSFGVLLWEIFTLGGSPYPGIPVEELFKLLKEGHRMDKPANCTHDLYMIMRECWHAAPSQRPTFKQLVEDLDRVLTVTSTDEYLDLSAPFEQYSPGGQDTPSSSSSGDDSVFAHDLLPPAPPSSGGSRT
UniProt P16234, 24-1089, stated change not applied: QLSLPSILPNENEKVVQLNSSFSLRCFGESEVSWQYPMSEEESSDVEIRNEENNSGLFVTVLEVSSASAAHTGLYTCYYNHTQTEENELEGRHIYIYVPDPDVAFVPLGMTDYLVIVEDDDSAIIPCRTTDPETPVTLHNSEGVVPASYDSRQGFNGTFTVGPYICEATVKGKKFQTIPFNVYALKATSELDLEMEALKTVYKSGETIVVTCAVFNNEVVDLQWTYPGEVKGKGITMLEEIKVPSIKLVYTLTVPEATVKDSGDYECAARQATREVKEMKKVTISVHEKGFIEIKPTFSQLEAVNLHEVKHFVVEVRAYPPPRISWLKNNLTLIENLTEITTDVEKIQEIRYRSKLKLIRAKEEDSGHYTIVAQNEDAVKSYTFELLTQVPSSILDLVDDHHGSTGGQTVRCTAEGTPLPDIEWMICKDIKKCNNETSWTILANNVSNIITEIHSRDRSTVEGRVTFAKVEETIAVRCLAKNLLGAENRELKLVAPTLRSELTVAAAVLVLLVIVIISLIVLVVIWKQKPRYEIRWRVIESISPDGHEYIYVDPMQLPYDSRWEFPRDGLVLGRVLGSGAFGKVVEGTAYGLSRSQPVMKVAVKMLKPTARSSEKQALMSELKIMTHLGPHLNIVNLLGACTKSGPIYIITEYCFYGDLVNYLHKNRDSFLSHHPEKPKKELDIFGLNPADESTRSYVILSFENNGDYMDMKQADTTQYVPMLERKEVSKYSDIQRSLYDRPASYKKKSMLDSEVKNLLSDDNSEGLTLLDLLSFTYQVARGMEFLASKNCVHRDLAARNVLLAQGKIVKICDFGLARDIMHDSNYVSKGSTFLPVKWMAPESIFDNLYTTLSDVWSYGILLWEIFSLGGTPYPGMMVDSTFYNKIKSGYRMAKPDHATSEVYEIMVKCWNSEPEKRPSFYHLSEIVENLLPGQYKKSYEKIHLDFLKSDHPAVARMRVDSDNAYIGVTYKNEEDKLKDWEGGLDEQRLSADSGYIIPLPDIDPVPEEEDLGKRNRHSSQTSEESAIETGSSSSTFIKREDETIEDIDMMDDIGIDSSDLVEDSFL
UniProt P53667, whole entry, stated change not applied: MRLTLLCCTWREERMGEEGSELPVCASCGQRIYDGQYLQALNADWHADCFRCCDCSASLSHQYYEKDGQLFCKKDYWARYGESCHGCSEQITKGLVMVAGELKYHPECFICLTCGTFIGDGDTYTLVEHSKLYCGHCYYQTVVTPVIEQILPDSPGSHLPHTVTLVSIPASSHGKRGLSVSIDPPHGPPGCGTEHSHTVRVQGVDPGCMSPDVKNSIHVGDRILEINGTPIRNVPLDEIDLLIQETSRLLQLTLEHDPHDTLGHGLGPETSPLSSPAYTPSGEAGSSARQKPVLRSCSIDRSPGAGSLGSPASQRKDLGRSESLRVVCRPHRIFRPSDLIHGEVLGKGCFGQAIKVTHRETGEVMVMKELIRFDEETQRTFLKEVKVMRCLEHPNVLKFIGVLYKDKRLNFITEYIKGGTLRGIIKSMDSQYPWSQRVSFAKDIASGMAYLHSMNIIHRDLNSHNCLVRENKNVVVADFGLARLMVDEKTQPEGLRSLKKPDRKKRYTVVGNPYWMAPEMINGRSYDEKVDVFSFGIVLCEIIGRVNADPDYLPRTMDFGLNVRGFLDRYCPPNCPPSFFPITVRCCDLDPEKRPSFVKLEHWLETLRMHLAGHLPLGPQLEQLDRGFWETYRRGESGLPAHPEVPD
UniProt Q96SB4, whole entry, stated change not applied: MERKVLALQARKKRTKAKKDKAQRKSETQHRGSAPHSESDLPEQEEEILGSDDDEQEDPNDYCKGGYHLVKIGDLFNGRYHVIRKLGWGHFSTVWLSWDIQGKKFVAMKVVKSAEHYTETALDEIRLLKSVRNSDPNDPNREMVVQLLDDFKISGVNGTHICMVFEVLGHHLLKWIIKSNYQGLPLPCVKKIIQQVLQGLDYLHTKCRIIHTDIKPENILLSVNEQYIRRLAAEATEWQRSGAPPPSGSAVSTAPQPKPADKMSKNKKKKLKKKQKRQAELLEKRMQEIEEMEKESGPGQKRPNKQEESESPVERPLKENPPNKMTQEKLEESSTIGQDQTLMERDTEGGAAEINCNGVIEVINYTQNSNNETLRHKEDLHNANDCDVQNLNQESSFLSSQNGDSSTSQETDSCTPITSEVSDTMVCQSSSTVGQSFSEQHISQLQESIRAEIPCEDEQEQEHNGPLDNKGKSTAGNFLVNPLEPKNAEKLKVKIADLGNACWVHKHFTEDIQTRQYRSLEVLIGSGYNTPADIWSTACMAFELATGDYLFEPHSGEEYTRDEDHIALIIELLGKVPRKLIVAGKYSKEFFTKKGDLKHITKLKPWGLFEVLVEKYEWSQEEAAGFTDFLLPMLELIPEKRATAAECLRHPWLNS
UniProt O00141, whole entry, stated change not applied: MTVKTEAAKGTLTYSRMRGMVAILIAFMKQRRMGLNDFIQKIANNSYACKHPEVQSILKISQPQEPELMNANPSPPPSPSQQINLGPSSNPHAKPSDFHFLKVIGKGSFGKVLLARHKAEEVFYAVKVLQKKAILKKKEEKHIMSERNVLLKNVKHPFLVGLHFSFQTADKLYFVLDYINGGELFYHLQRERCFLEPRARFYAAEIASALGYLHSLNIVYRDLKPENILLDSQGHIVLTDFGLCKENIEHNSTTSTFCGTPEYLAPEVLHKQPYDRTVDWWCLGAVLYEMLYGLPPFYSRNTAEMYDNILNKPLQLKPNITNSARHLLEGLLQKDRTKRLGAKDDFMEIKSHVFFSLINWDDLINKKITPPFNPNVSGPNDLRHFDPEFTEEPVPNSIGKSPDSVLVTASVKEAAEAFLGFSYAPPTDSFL
UniProt P30291, whole entry, stated change not applied: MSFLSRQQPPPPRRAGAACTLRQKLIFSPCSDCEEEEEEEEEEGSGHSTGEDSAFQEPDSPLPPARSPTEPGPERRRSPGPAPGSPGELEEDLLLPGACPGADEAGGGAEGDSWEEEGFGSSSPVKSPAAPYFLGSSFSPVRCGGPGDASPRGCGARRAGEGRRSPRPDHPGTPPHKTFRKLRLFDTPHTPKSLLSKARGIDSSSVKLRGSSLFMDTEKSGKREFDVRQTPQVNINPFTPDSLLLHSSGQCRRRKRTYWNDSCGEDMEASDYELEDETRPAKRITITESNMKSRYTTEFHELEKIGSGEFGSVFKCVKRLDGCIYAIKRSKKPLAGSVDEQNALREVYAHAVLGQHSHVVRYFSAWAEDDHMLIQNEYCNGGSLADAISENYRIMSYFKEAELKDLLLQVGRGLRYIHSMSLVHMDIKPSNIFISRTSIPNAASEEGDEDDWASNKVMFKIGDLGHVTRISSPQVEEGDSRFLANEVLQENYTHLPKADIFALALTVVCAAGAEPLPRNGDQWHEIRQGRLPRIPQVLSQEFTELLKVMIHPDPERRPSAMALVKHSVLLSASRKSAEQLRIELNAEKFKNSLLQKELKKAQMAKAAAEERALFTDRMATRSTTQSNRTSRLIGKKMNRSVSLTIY
UniProt Q9P1W9, whole entry, stated change not applied: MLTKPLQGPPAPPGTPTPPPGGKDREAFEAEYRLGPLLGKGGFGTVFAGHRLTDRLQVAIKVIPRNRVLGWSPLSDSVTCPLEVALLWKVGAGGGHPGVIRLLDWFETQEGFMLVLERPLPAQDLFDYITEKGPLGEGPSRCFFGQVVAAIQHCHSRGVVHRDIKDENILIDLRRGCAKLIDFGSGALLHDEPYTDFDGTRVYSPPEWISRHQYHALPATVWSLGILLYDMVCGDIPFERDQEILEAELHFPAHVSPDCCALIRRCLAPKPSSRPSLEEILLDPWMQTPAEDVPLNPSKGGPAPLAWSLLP
UniProt Q9UBS0, whole entry, stated change not applied: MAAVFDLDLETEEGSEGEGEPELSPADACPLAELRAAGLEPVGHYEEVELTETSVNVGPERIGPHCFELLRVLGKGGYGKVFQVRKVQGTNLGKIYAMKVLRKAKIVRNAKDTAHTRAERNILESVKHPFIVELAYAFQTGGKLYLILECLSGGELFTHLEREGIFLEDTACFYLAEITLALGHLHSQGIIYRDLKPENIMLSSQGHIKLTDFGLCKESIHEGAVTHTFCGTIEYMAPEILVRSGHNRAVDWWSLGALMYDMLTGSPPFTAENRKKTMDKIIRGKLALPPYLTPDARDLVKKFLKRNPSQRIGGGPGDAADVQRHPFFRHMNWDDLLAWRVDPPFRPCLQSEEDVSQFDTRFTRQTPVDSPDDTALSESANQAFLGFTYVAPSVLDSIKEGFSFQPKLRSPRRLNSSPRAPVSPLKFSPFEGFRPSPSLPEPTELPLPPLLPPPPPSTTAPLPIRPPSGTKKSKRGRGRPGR

According to publication PMC3961306, “Comparison of the Cancer Gene Targeting and Biochemical Selectivities of All Targeted Kinase Inhibitors Approved for Clinical Use” (PLoS ONE, 2014):

Assays:
Experiment in all cases: Kinase profiling in a biochemical assay panel (mobility shift assays and ELISA), %-inhibition at 1 μM; selectivity entropy
[1] = target: panel of more than 300 wild-type and mutant kinases (313 kinase panel) (Homo sapiens, UniProt O95819)
[2] = target: panel of more than 300 wild-type and mutant kinases (313 kinase panel) (Homo sapiens, UniProt P22607); settings: 1 µM
[3] = target: panel of more than 300 wild-type and mutant kinases (313 kinase panel) (Homo sapiens, UniProt Q9NZJ5)
[4] = target: panel of more than 300 wild-type and mutant kinases (313 kinase panel) (Homo sapiens, UniProt Q14680); settings: 1 µM
[5] = target: panel of more than 300 wild-type and mutant kinases (313 kinase panel) (Homo sapiens, UniProt Q9Y3S1)
[6] = target: panel of more than 300 wild-type and mutant kinases (313 kinase panel) (Homo sapiens, UniProt Q5VT25); settings: 1 µM
[7] = target: panel of more than 300 wild-type and mutant kinases (313 kinase panel) (Homo sapiens, UniProt P36507); settings: 1 µM
[8] = target: panel of more than 300 wild-type and mutant kinases (313 kinase panel) (Homo sapiens, UniProt P16234); settings: 1 µM
[9] = target: panel of more than 300 wild-type and mutant kinases (313 kinase panel) (Homo sapiens, UniProt P53667); settings: 1 µM
[10] = target: panel of more than 300 wild-type and mutant kinases (313 kinase panel) (Homo sapiens, UniProt P22607, K650M); settings: 1 µM
[11] = target: panel of more than 300 wild-type and mutant kinases (313 kinase panel) (Homo sapiens, UniProt Q96SB4); settings: 1 µM
[12] = target: panel of more than 300 wild-type and mutant kinases (313 kinase panel) (Homo sapiens, UniProt Q9Y463)
[13] = target: panel of more than 300 wild-type and mutant kinases (313 kinase panel) (Homo sapiens, UniProt O00141); settings: 1 µM
[14] = target: panel of more than 300 wild-type and mutant kinases (313 kinase panel) (Homo sapiens, UniProt P33981); settings: 1 µM
[15] = target: panel of more than 300 wild-type and mutant kinases (313 kinase panel) (Homo sapiens, UniProt P30291); settings: 1 µM
[16] = target: panel of more than 300 wild-type and mutant kinases (313 kinase panel) (Homo sapiens, UniProt Q9P1W9); settings: 1 µM
[17] = target: panel of more than 300 wild-type and mutant kinases (313 kinase panel) (Homo sapiens, UniProt P22607, K650E); settings: 1 µM
[18] = target: panel of more than 300 wild-type and mutant kinases (313 kinase panel) (Homo sapiens, UniProt P04049); settings: 1 µM
[19] = target: panel of more than 300 wild-type and mutant kinases (313 kinase panel) (Homo sapiens, UniProt P50613); settings: 1 µM
[20] = target: panel of more than 300 wild-type and mutant kinases (313 kinase panel) (Homo sapiens, UniProt Q9UBS0)
[21] = target: panel of more than 300 wild-type and mutant kinases (313 kinase panel) (Homo sapiens, UniProt P45983); settings: 1 µM
[22] = target: panel of more than 300 wild-type and mutant kinases (313 kinase panel) (Homo sapiens, UniProt O14578); settings: 1 µM
[23] = target: panel of more than 300 wild-type and mutant kinases (313 kinase panel) (Homo sapiens, UniProt Q16288); settings: 1 µM

SMILES | %-inhibition of FGFR3 [2] [%] | %-inhibition of MELK [4] [%] | %-inhibition of MRCKα [6] [%] | %-inhibition of MAP2K2 [7] [%] | %-inhibition of PDGFRα [8] [%] | %-inhibition of LIMK1 [9] [%] | %-inhibition of FGFR3(K650M) [10] [%] | %-inhibition of SRPK1 [11] [%] | %-inhibition of DYRK1B [12] [%] | %-inhibition of SGK [13] [%] | %-inhibition of TTK [14] [%] | %-inhibition of WEE1 [15] [%] | %-inhibition of PIM2 [16] [%] | %-inhibition of FGFR3(K650E) [17] [%] | %-inhibition of RAF1 [18] [%] | %-inhibition, CDK7/CycH/MAT1 [19] [%] | %-inhibition of JNK1 [21] [%] | %-inhibition of CRIK [22] [%] | %-inhibition of TRKC [23] [%] | also measured
CNC(=O)c1ccccc1Sc1ccc2c(/C=C/c3ccccn3)n[nH]c2c1 [axitinib] |  |  |  |  |  |  |  |  |  |  |  |  |  |  |  |  |  |  |  | %-inhibition of HGK ([1]; kinase HGK, compound at 1 μM): 75%
COc1cc2ncnc(Nc3ccc(F)c(Cl)c3)c2cc1OCCCN1CCOCC1 [gefitinib] | 13 | 2.78 | 1.4 | 7.39 | 54 | -3.69 | 37 | -3 | 14 | 1.89 | 19 | 21 | 11 | 28 | 2.31 | 5 | 21 | 26 | 7.46 | %-inhibition of PEK ([3]; kinase PEK, 1 μM): 0.579%; %-inhibition of WNK2 ([5]; kinase WNK2, compound at 1 μM): -6.43%; %-inhibition of p70S6Kβ ([20]; kinase p70S6Kβ, 1 μM): 9%
C[C@@H]1CCN(C(=O)CC#N)C[C@@H]1N(C)c1ncnc2[nH]ccc12 [tofacitinib] | 4.61 | 3.21 | -0.575 | 6 | 24 | 6 | 12 | 2.13 | -4.63 | 0.61 | 2.19 | -0.0711 | -8 | 11 | 10 | -6.46 | -0.777 | -11 | 3.69 | %-inhibition of PEK ([3]; 1 µM): 2.48%; %-inhibition of WNK2 ([5]; 1 µM): -5%; %-inhibition of HGK ([1]; 1 µM): -2.79%; %-inhibition of p70S6Kβ ([20]; 1 µM): 0.235%
